# Test results from publication PMC3215401 (Biosensors & bioelectronics, 2011).
# Columns and labels:
# Format in all cases: cell-based, human
# [1] = target: PPARγ LBD, sensor 100PPARγ383 (UniProt P37231+P9WHJ3, V318L)
# [2] = target: PPARγ LBD, sensor 110PPARγ393 (UniProt P37231+P9WHJ3, V318L)
# [3] = target: PPARγ LBD, sensor 94PPARγ403 (UniProt P37231+P9WHJ3, V318L)
# [4] = target: PPARγ LBD, sensor 110PPARγ383 (UniProt P37231+P9WHJ3, V318L)
smiles,measurement,setting,value
"CN(CCOc1ccc(CC2SC(=O)NC2=O)cc1)c1ccccn1 (stereo not shown) [ROSIG, Rosiglitazone]",effect on cell growth,[1],slightly increased sensitivity
same,effect on cell growth,[2],strongly facilitated its growth
same,effect on cell growth,[3],strong positive responses
same,effect on cell growth,[4],significantly enhanced
